Values of other authors, collected in US20120252037A1, “STIMULATORY AUTO-ANTIBODIES TO THE PDGF RECEPTOR AS PATHOLOGY MARKER AND THERAPEUTIC TARGET” (priority 2005, published 2012).

Sequences of proteins named here, by UniProt entry; tags and fusion partners are left off. Residues count along the entry.
UniProt P00533, 25-1210: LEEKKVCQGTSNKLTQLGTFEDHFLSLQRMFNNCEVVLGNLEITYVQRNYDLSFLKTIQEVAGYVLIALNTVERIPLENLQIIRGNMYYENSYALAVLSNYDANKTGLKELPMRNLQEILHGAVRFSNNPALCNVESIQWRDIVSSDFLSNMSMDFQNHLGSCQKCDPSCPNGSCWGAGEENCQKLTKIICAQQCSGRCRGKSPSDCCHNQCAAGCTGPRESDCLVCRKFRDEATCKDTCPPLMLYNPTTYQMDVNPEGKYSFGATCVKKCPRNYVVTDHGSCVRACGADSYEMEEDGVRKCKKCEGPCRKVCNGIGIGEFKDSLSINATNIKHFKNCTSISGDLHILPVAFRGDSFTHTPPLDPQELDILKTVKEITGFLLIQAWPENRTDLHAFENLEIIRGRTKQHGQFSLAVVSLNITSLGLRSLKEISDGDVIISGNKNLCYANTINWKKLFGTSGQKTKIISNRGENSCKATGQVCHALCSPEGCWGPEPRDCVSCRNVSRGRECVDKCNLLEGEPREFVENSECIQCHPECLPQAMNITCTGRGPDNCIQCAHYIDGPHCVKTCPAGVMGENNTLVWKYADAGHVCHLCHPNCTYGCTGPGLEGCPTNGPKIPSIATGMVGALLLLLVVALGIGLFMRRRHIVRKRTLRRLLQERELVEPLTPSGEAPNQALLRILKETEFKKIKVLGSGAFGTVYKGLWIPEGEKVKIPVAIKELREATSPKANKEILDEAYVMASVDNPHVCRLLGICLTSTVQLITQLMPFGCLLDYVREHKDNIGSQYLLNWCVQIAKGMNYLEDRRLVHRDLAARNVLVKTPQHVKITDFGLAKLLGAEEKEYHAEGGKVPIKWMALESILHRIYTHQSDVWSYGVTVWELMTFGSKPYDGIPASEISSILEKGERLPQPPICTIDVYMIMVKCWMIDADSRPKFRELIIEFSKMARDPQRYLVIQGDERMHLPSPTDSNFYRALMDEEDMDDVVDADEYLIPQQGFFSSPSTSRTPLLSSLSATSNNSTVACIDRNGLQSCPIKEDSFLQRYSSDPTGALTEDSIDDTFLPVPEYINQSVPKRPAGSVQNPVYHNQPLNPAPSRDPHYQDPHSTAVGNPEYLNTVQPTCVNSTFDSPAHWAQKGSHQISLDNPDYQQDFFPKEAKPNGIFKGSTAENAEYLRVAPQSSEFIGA

Target: EGF receptor (Homo sapiens, UniProt P00533)
Conditions: cited from earlier work

In the case of COc1cc2ncnc(Nc3cccc(Cl)c3)c2cc1OC [AG1478], the IC50 is listed as 3 nM.
